## Ab-14 heavy chain CDR variants: yeast mating affinities

Source: Li et al. 2023 (doi:10.1038/s41467-023-39022-2), MIT Lincoln Laboratory and A-Alpha Bio; data file from the FLAb repository.

The target is the same throughout: PDVDLGDISGINAS, from the HR2 region of SARS-CoV-2 spike.

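The variants were designed computationally from a first round of random CDR variants and then made and measured. Several design methods are mixed in this list. In AlphaSeq, yeast of one mating type display the scFv and yeast of the other type display the target. Binding brings cells together so that they mate, and sequencing counts the barcode pairs among the diploids. Read counts were normalised to the haploid input and turned into Kd by a linear fit to BCL2-family pairs of known affinity, for each replicate. The assay was run in six technical replicates.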

Each scFv is VH, the linker GGGGSGGGGSGGGGS, VL, as in the parent Ab-14, and differs from it in the CDRs of the heavy chain only.
VH: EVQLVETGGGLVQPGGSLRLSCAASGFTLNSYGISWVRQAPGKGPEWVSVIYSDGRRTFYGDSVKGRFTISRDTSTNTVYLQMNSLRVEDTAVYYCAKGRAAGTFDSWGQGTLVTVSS
VL: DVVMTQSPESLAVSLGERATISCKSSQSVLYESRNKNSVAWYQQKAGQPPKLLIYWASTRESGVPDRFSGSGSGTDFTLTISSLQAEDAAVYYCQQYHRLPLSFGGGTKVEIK

Substitutions are numbered in sequence along the VH above, starting at 1 (not Kabat).
This list holds designs with at most six substitutions.
The Kd shown is the geometric mean over detected replicates; a lower Kd is a better binder.
Where no diploid with the target was found in any replicate, the entry reads "nd": below detection, most likely a poor binder, though not proof of it.

Variant T28S+G61S+R100M showed 1.2 nM (6 of 6 replicates).
Variant R100D+A101Q+A102M+F105M+D106P showed 1.7 µM (1 of 6 replicates).
Variant T28E+S53A+R100K+A101T showed 590 pM (6 of 6 replicates).
Variant T28D+G61S+R100N+A102G showed 12 nM (6 of 6 replicates).
Variant T28S+R56K+R100Q+S107L showed 3.0 nM (6 of 6 replicates).
Variant T28D+S31T+S63K+A101T showed 1.5 nM (6 of 6 replicates).
Variant T28D+G61K+D62G+A102H showed nd (0 of 6 replicates).
Variant T28S+A101L+S107F showed 2.3 nM (6 of 6 replicates).
Variant T28D+G61R+A101Q showed 6.3 nM (6 of 6 replicates).
Variant R56Q+R100K+A102K showed nd (0 of 6 replicates).
Variant S31D+R100K+A101V+D106I showed 1.3 nM (4 of 6 replicates).
Variant T28D+S31E+S53A+G61T+R100E showed 240 pM (6 of 6 replicates).
Variant T28N+G61K+R100Q+A101E showed 2.2 nM (6 of 6 replicates).
Variant N30Q+G61D+R100K+A101L showed 200 pM (6 of 6 replicates).
Variant T28N+S53A+R100E showed 770 pM (6 of 6 replicates).
Variant T28E+G61R+R100Q+A101T+S107L showed 8.8 nM (6 of 6 replicates).
Variant T28D+R56M+T104W+D106N showed nd (0 of 6 replicates).
Variant G26K+T28S+G61S+R100Q+A101T showed 6.1 nM (6 of 6 replicates).
Variant G61I+R100K+A101E showed 8.4 nM (3 of 6 replicates).
Variant T28D+G61Q+R100E showed 5.1 nM (6 of 6 replicates).
Variant S31Q+G61S+G103M+T104F showed 760 nM (1 of 6 replicates).
Variant S31D+R56L+F59M+G61I showed 3.7 nM (6 of 6 replicates).
Variant T28S+S31D+G61I+A101L showed 8.6 nM (6 of 6 replicates).
Variant T58V+S63N+D106S showed 2.8 nM (6 of 6 replicates).
Variant T28D+R100K+A101T+S107W showed 15 nM (4 of 6 replicates).
Variant T28S+S31E+S107C showed nd (0 of 6 replicates).
Variant G61S+T104F+D106T showed nd (0 of 6 replicates).
Variant S53A+G61I+D62I+A102S+D106L showed nd (0 of 6 replicates).
Variant S31E+R56I+A101N showed 870 pM (6 of 6 replicates).
Variant G61S+R100Q+A101V+A102G showed 3.1 nM (6 of 6 replicates).
Variant T28E+R56K+G61A+A101T showed 740 pM (6 of 6 replicates).

Extract of 4 entries:

changes	apparent Kd	replicates with signal
T28S+R56K+R100Q+S107L	3.0 nM	6/6
G61S+T104F+D106T	nd	0/6
T28S+S31D+G61I+A101L	8.6 nM	6/6
R56Q+R100K+A102K	nd	0/6

A sequence measured in both rounds can read differently, since the two assays cover different ranges.
Background: pairings of all heavy chain designs with three empty control strains gave a value in 1% of cases (median 120 nM, 5th percentile 7.0 nM). Values in that range, when seen in few replicates, are hard to tell from nonspecific mating.
The authors averaged sequences with at least three values out of six and counted those with two or fewer as poor binders.
The parent sequence was in this pool as ten entries: three were never detected, three once, and four in most replicates, with averages from 2.2 nM to 240 nM.